According to patent US20250354133A1, “SIALIDASE FUSION MOLECULES AND RELATED USES” (The Scripps Research Institute, priority 2022, published 2025):

Molecular target: CD19 (human) (UniProt P15391)
Assay: cell-based or functional assay

## Blinatumomab-sialidase fusion (CD19 BiTE-sialidase) (bispecific antibody)
  EC50 of dose-dependent killing of Raji cells, effector:target 10:1: 0.8 pM
  EC50 of killing of Raji cells, fold lower than Blinatumomab (CD19 BiTE): 5 fold lower
